In PubChem BioAssay AID651997 (Sanford-Burnham Center for Chemical Genomics, 2013):
Only a part is listed here, and it is no random draw. Some of these compounds have results that are not shown, active ones among them. Calls of active or inactive are those of the source.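 Rule for the calls: active = inhibition of at least 50%; inactive = the rest.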

Amino acid sequences for entries named in this document (tags omitted).
UniProt P32249, whole entry: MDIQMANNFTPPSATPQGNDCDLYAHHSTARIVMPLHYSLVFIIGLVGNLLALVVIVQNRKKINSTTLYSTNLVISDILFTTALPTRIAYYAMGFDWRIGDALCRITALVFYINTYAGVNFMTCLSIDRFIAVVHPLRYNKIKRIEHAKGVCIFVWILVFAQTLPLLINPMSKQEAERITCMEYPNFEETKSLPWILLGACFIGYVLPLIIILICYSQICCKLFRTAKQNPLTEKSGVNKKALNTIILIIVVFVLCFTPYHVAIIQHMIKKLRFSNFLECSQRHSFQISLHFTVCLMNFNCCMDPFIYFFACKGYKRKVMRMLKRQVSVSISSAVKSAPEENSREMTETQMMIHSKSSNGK

target: G-protein coupled receptor 183 (Homo sapiens) (UniProt P32249); assay: repeat testing of EBI2 arrestin blockers – cell-based, single concentration, luminescence, 7a,25-OHC stimulation, confirmation (AID 651997); conditions: EBI2 beta-arrestin luminescence, 7a,25-OHC antagonism; at 5 µM; hits give high values

**Q.** Which inhibition does the source give for `CCCCC(CC)C(=O)N1CCN(C/C=C/c2ccccc2)CC1` (stereo unspecified) here?
**A.** inactive: 25.3%
